These are literature values, as cited in PMC11938273 (Journal of Chemical Information and Modeling, 2025).

The conditions of this series: in vivo; cited from earlier work.

As for `C[C@]12C=CC(=O)C=C1CC[C@H]1[C@@H]3C[C@@H](O)[C@](O)(C(=O)CO)[C@@]3(C)C[C@H](O)[C@@]12F` [Triamcinolone, (11β,16α)-9-Fluoro-11,16,17,21-tetrahydroxypregna-1,4-diene-3,20-dione], the CNS status result is “Efflux transporter substrate”.
